This note sets out measurements from US20230165965A1, “NEW COUMARIN-POLYMER CONJUGATES AND USES THEREOF” (Onyel Biotech S.r.l., priority 2020, published 2023).

The subject of one data set is wild type mice. The note with it: subcutaneous injection, wild type mice, 4, 7 and 21 days.
Data set [1] in a line: Atomic force measurement (AFM) of hydrogel Young's modulus. In kind it is physicochemical. The method, then: With the aim to provide glass surface HCCA-groups for covalent bonding HCC-branched polymers solutions were drop-cast onto glass coverslip previously functionalized with HCCA- as described in Section 10. HCC-4arm PEG and HCC-8arm PEG were dissolved in PBS (300 mg/mL) at room temperature under agitation. HCC-Gel was dissolved in PBS (100 mg/mL) under agitation at 60° C. for 10 min. When coverslips were used, a second coverslip was placed on top of the drop of HCC-polymeric solutions to limit water evaporation during the irradiation process. […] Laser power is measured before objective back aperture, corresponding to about 1% of the power on the sample plane. […]
For crosslinking reaction analysis, 5 μL CMMC-4 arm PEG (300 mg/mL) or CMMC-Gel (100 mg/mL) solution was located in a humid chamber at 3 cm from a 365 nm UV LED Gen 2 Emitter LZ4-04UV00 (Led Engin) and irradiated for different minutes as reported. When CMMC-Gel solution was analysed at different concentrations (100 mg/mL, 120 mg/mL, 140 mg/mL, 160 mg/mL, 180 mg/mL and 200 mg/mL), 5 μL of solution was located in a humid chamber at 3 cm from a 365 nm UV LED Gen 2 Emitter LZ4-04UV00 (Led Engin) and irradiated for 3 minutes. […]
The Young's modulus was calculated applying a fit of the Hertz model to the force curve, assuming a Poisson ratio of 0.5. […]

A further data set has as its system Fibroblasts (FBs). The note with it: six hours after hydrogel crosslinking.
The test system of the next data set is skeletal muscle. Briefly: i3D printing into muscle across epimysium. In kind it is in vivo, mice. The note with it: 1 mW and 2 mW laser power, under epimysium. The method, then: Mice were anaesthetized using i.p. injection of Zoletil® 50/50 (40 mg/kg) and Rompun® 2% Xilazina (5 mg/kg) in physiologic solution. Induction of deep surgical anaesthesia was confirmed by absence of reaction to hind foot pinch. The surgical procedure underwent in aseptic conditions (skin preparation, sterilized instruments, gloves and drapes). […] For blood flow analysis, Rhodamine B isothiocyanate-Dextran (Sigma, R9379) was injected in tail vein at 50 mg/mL in physiologic solution. When required, skin wound was closed with Vicryl 6-0 suture and no movement or space restriction were applied to animals after treatments. At the required time point, animals were deeply anesthetized, subjected to stereomicroscope and/or 2P intravital imaging, then sacrificed for tissues collection.

Data set [2] in a line: 2P absorption patterning and 2P hydrogel polymerization. In kind it is physicochemical. The note with it: 2P excitation, 700<λ<950 nm, constant power. As to the method:
For 2P absorption, HCC-PEG was patterned onto HCCA-functionalised glass coverslips following the highly spatially localized 2P excitation given by a multiphoton laser-scanning microscope. HCCA-functionalization on coverslip was achieved as follows. Coverslips were cleaned and extensively rinsed with deionized water and finally oxidized by the PDC-002-CE Plasma Cleaner (Harrick Plasma, Ithaca, N.Y., USA) for 30 seconds. The glass slide was incubated in a 2% (v/v) APTES solution in absolute ethanol (300 μL) under gently stirring. After 6 minutes, the substrate was washed three times with ethanol to remove unbound APTES and finally dried at 110° C. for 2 hours. […] 2P microscope was used to irradiate surfaces in contact with HCC-PEG solution and produce 2P cross-linked area of 850×850 μm^2, 425×425 μm^2 and 280×280 μm^2 (laser wavelength of 800 nm; laser power 0.7 mW measured before objective back aperture: writing time of 1.14 ms/line and rate of 1.72 frame/s; 4 frame per plane).
With the aim to provide glass surface HCCA-groups for covalent bonding HCC-branched polymers solutions were drop-cast onto glass coverslip previously functionalized with HCCA- as described in Section 10. […] Laser power is measured before objective back aperture, corresponding to about 1% of the power on the sample plane. […]

The subject of another data set is hES-derived NSCs. Conditions: three days after seeding, pre-assembled flat hydrogels.
Data set [3] has as its system human small intestinal organoids (hSIOs). The source says: ImageJ software were used for adjustments of levels and contrast, maximum and standard deviation intensity projections, 3D reconstructions and thresholding to create binary mask used for directionality and ferret angle measurements. To quantify the directionality of i3D bioprinted cells, at least 9 fluorescence images of independent biological triplicates for each sample were converted in binary masks, then analyzed with directionality plugin of ImageJ software (that indicates the amount of structures in a given direction). To quantify the shape of enclosed hSIOs, at least 9 fluorescence images of independent biological triplicates for each sample were converted in binary masks, then analyzed with measure plugin of ImageJ software to quantify the Feret's angle (the angle between the longest distance of the axis of any two points along the selection boundary (Feret's diameter) and a line parallel to the x-axis of the image).

For the substance “7-hydroxycoumarin-3-carboxamide-gelatin [HCC-Gel]”, the “histology, TUNEL and macrophage staining vs PBS” value with wild type mice is “no evident histological modification, cell apoptosis or macrophage infiltration”. The “elastic modulus of hydrogel fabricated in Matrigel vs in absence of Matrigel” value in data set [1] (2P crosslinking, after Matrigel dissociation) was “comparable elastic modulus”. Further, in data set [1] (cell-laden bioprinted structures), the “reduction of Young's modulus in presence of cells” value was “about 6%”. In the data set on Fibroblasts (FBs), the “viability of FBs in cell-laden hydrogel” value is “viable”. Further, the “myofiber contraction and heat-induced tissue damage during i3D bioprinting” value in the data set on skeletal muscle is recorded as “No myofiber contraction nor heat-induced tissue damage”. In addition, in data set [2], the “stability of single 3D objects after removal of non-crosslinked solution” value is recorded as “remained stable”. In the data set on hES-derived NSCs, the “neural markers and apoptosis of hES-derived NSCs” value is “expression of specific neural markers and absence of apoptosis”. Also, the “cytocompatibility on enclosed hSIOs by live/dead assay” value in data set [3] (after 2 days and 8 days of culture) is recorded as “cytocompatibility on hSIOs enclosed in the structures was demonstrated”. The “hSIO viability / survival and growth in culture” value in data set [3] (polymer combined with Matrigel) was “support the viability and the growth”.
